By UniProt entry, the sequences of proteins in these tests, tags left out.
UniProt P04775, whole entry: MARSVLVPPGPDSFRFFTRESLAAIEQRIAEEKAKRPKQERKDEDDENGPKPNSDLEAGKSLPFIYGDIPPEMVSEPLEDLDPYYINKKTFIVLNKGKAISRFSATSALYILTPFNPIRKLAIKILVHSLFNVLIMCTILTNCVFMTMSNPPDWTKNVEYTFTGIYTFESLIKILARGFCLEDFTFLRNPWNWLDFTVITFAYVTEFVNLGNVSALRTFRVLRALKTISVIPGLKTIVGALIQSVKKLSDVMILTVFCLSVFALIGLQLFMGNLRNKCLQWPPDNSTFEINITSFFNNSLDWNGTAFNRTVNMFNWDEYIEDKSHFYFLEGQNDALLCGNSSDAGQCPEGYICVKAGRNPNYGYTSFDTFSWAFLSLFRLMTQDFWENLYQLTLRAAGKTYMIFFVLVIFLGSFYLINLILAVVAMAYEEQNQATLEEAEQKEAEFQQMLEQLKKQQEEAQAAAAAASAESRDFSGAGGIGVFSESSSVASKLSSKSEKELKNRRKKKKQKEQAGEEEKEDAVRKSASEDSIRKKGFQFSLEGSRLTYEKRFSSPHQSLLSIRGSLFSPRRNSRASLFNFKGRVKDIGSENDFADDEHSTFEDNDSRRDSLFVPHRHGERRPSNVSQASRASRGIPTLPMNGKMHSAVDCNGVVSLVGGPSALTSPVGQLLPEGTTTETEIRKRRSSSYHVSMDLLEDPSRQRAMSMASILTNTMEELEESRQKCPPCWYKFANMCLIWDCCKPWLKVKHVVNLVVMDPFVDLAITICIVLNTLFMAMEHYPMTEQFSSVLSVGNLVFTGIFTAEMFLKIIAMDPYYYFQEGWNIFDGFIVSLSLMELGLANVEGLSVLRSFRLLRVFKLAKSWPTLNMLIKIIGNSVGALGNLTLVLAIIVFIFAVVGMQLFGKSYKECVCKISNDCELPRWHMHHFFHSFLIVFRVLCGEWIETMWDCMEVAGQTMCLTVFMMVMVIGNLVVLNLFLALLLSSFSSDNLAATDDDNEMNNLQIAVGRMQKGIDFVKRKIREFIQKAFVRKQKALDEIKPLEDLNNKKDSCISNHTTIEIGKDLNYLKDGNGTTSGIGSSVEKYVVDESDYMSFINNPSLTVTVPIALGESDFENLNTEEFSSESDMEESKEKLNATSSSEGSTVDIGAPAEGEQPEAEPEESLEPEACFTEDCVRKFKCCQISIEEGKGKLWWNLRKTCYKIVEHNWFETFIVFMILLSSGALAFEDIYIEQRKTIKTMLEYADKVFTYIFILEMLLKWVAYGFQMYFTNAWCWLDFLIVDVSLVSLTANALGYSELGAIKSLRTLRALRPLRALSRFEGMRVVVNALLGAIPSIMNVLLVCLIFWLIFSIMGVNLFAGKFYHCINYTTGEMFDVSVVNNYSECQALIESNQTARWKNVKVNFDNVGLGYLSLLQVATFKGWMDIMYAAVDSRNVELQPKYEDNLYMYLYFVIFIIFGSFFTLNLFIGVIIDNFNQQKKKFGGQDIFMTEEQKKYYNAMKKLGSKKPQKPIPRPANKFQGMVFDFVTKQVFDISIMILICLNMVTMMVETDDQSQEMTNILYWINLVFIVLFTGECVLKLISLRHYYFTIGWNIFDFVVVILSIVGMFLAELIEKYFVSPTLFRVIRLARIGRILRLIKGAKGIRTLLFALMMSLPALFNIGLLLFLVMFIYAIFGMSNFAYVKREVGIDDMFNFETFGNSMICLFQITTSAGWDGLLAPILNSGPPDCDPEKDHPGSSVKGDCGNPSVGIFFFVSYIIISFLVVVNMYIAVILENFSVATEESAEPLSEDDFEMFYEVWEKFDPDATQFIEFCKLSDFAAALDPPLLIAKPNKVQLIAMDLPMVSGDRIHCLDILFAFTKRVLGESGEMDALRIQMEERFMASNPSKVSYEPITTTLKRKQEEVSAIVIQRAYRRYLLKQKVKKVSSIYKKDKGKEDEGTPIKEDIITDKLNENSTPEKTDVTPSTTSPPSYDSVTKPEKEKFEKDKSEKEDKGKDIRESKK

According to paper PMC3009643 (BMC Neuroscience, 2010):

Target: T1, rNav1.2 α-subunit (Rattus norvegicus, UniProt P04775)
T1 construct: host or cells: CHL 1610 (Chinese hamster lung)
Assay type: cell-based
Conditions: read-out: IC50, inhibition of ATX-induced sodium influx (95% CI)

## NC1=N[C@H](O)[C@H]2[C@H]3O[C@]4(O)O[C@@H]([C@@H](O)[C@@]2(N1)[C@@H]4O)[C@]3(O)CO [TTX, tetrodotoxin, reference compound]
  IC50: 14.8 nM
